From patent US8742173B2, “Phenolic hydrazone macrophage migration inhibitory factor inhibitors” (The Feinstein Institute for Medical Research, priority 2006, dated 2014)

Chains of the proteins cited; added tags and fusions are not shown. Residues count along the entry.
UniProt P14174, 2-115 limits assumed: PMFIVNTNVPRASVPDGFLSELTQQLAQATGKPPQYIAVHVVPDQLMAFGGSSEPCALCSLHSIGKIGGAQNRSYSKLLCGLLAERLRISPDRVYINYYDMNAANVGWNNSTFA

Target: MIF (Homo sapiens, UniProt P14174)
Assay: Spectrophotometric assay of MIF tautomerase activity on L-dopachrome methyl ester
Assay type: biochemical
Details: read-out: IC50 for inhibition of MIF tautomerase activity; Table 1; L-dopachrome methyl ester substrate

Structure (SMILES): Oc1ccc(/C=N/Nc2ccccc2)cc1F
- IC50: 1500 nM
